Literature values, collected in US7988998B2, “Sustained-release tramadol formulations with 24-hour efficacy” (Labopharm Inc., priority 2002, dated 2011).

Amino acid sequences for entries named in this document (tags omitted).
UniProt P35372, whole entry, species assumed: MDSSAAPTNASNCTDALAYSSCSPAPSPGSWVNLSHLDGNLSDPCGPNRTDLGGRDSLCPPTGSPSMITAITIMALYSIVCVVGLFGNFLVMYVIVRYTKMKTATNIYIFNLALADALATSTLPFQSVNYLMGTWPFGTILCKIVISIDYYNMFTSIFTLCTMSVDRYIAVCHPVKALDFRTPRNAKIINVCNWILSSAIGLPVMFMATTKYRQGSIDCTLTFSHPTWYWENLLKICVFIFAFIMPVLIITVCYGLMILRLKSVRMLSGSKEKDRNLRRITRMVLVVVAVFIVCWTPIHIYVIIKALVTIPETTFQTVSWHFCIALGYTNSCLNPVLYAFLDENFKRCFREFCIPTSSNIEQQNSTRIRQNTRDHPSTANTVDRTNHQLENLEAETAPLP

Biological target: μ-opioid receptor (Homo sapiens, UniProt P35372)
Settings: higher affinity than racemic tramadol

For `CN(C)C[C@H]1CCCC[C@]1(O)c1cccc(O)c1` [mono-O-desmethyltramadol (M1), mono-O-desmethyltramadol], the “affinity for the μ-opioid receptor relative to racemic tramadol” value is listed as ~200 fold.
